Experimental data taken from article PMC4015959, “The Structural and Functional Basis of Catalysis Mediated by NAD(P)H:acceptor Oxidoreductase (FerB) of Paracoccus denitrificans” (PLoS ONE, 2014).

Test system: reduced nicotinamide adenine dinucleotide
Experiment: purified protein, by the assay type
Details: pH 7.4

| Substance | Km (10.0 °C) [µM] | kcat (10.0 °C) [s⁻¹] | kcat/Km (10.0 °C) [M⁻¹ s⁻¹] | Km (30.0 °C) [µM] |
| --- | --- | --- | --- | --- |
| FerBHis6 (Paracoccus denitrificans PD1222) | 22 ± 2 | 258 | 1.17e+07 | – |
| FerBHis6-E77A (Paracoccus denitrificans PD1222; E77A) | 180 ± 30 | 17.9 | 99000 | – |
| FerBHis6-E77K (Paracoccus denitrificans PD1222; E77K) | 30 ± 8 | 0.75 | 25000 | – |
| FerBHis6-E77L (Paracoccus denitrificans PD1222; E77L) | 250 ± 30 | 0.072 | 290 | – |
| FerBHis6-E77M (Paracoccus denitrificans PD1222; E77M) | 420 ± 160 | 2.5 | 6000 | – |
| FerBHis6-G115F (Paracoccus denitrificans PD1222; G115F) | 410 ± 90 | 2.2 | 5400 | – |
| FerBHis6-G115I (Paracoccus denitrificans PD1222; G115I) | 630 ± 70 | 1.7 | 2700 | – |
| FerBHis6-G118F (Paracoccus denitrificans PD1222; G118F) | 85 ± 6 | 77 | 906000 | – |
| FerBHis6-G118I (Paracoccus denitrificans PD1222; G118I) | 38 ± 3 | 12 | 316000 | – |
| FerBHis6-R80E (Paracoccus denitrificans PD1222; R80E) | 30 ± 3 | 0.275 | 9200 | – |
| FerBHis6-R80K (Paracoccus denitrificans PD1222; R80K) | 350 ± 80 | 9.5 | 27000 | – |
| FerBHis6-R80L (Paracoccus denitrificans PD1222; R80L) | 580 ± 150 | 0.142 | 240 | – |
| FerBHis6-R80M (Paracoccus denitrificans PD1222; R80M) | 780 ± 280 | 0.302 | 390 | – |
| FerBHis6-R95A (Paracoccus denitrificans PD1222; R95A) | 20 ± 2 | 146 | 7.29e+06 | 33 |
| FerBHis6-R95E (Paracoccus denitrificans PD1222; R95E) | 70 ± 9 | 21.1 | 302000 | – |
| FerBHis6-S113A (Paracoccus denitrificans PD1222; S113A) | 60 ± 20 | 76.7 | 1.28e+06 | – |
| FerBHis6-Y78A (Paracoccus denitrificans PD1222; Y78A) | 40 ± 10 | 196 | 4.9e+06 | – |
